{"sequences": {"note": "By UniProt entry, the sequences of proteins in these tests, tags left out. Residues count along the entry.", "UniProt P00811, 20-377": "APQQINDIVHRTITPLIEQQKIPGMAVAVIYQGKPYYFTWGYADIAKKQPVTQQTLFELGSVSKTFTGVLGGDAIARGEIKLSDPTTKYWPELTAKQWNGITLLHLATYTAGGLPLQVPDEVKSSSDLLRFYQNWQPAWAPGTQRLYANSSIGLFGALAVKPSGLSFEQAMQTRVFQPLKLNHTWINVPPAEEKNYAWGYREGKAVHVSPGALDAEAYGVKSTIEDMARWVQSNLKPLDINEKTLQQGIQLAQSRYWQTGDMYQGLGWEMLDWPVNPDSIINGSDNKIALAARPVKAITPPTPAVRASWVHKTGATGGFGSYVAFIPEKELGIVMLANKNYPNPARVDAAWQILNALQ"}, "source": "paper PMC9603770", "about": "“Broad-Spectrum Inhibitors against Class A, B, and C Type β-Lactamases to Block the Hydrolysis against Antibiotics: Kinetics and Structural Characterization” (Microbiology Spectrum, 2022)", "origin": "cited, not measured here", "target": "T1, Amp-C (Escherichia coli, UniProt P00811)", "T1 construct": "made in house; host or cells: E. coli (DH5 and BL21(DE3) named; pET-28a)", "design": "method as in PMID 20921316", "conditions": "cited from earlier work", "note": "pIC50: −log10 of the molar value.", "data": [{"compound": "NC(=O)[C@@H]1CC[C@@H]2CN1C(=O)N2OS(=O)(=O)O", "note": "[Avibactam, reference compound]", "values": [{"measurement": "pIC50", "result": 6.89}]}]}
